From patent US11987542B2, “Co-crystal of sorafenib derivatives and process for preparation thereof” (EicOsis, LLC, priority 2018, dated 2024)

By UniProt entry, the sequences of proteins in these tests, tags left out. Residues count along the entry.
UniProt A0A5F9CRP6, 1-555: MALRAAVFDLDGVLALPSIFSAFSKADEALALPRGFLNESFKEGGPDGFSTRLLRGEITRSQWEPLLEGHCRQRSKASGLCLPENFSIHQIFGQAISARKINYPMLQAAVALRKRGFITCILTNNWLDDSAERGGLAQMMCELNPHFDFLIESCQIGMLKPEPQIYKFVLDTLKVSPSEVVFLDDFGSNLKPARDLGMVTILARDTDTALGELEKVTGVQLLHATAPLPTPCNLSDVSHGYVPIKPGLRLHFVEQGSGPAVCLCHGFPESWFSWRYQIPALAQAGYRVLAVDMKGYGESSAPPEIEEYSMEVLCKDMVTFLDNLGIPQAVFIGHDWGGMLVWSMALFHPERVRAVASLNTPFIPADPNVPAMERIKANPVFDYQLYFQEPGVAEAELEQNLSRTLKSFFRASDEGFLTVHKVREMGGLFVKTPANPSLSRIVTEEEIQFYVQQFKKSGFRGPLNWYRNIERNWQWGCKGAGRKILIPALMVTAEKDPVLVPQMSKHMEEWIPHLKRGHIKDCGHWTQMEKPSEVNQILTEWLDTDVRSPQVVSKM

Target: Rabbit sEH (Oryctolagus cuniculus, UniProt A0A5F9CRP6)
Conditions: read-out: IC50 Rabbit sEH; radioactive assay and liver cytosolic preparation

O=C(Nc1ccc(OC(F)(F)F)cc1)N[C@H]1CC[C@H](Oc2ccc(C(=O)O)cc2)CC1 [EC1728, trans-4-{4-[3-(4-trifluoromethoxy-phenyl)-ureido]-cyclohexyloxy}-benzoic acid]
IC50: 2 nM
